Test results: US10314857B2, “Compositions and methods for treating carbon monoxide and/or cyanide poisoning” (dated 2019)

Tests used:
[1] = frozen solution at −20° C.; cited from earlier work
[2] = tested on: Long-Evans rats exposed to CO; test: Spatial learning, Morris Water Maze path efficiency after CO exposure
[3] = tested on: carboxyhemoglobin (COHgb); test: COHgb half-life in blood by Resonance Raman spectroscopy; conditions: O2 + B12r versus O2 alone, p<0.001
[4] = tested on: whole human blood containing 50% COHgb; test: CO2 production (gas-out) after injection into CO-poisoned human blood in closed-loop oxygenator circuit; conditions: for increase in the gas-out concentration of CO2 versus controls: B12r versus controls (NSdeox, AA, B12a)
[5] = tested on: Sprague-Dawley rats exposed to 2500 ppm CO; test: Brain oxygenation (PbtO2) in rats exposed to CO or medical air
[6] = tested on: brain tissue of Long-Evans rats exposed to CO; test: Immunohistochemistry of brain tissue (IBA-1, GFAP) after CO exposure
[7] = tested on: 13C labeled CO in human blood (COHgb); test: 13C labeled CO tracing: change in 13CO2/12CO2 ratio after antidote infusion; conditions: 20 min post-infusion, 300 mg OHCbl:300 mg ascorbic acid in 5 mL
rats = test: Survival of animals after receiving B12r solution
[8] = UV-Vis spectra of reduced hydroxocobalamin solution after exposure to air; conditions: solution left under room air, spectrum after 30 minutes
[9] = serial injections, ascorbic acid given 30 min after OHCbl into the same blood

## diaquo-cobinamide
[1]
  storage stability: at least two months

## reduced hydroxocobalamin
[2]; 2 mL/kg IP, tested days 1, 3, 6, 8, no statistical differences between treatments (p>0.2)
  change in path efficiency over testing days: no change
[2]; hidden submerged platform
  cognitive ability / path efficiency (FIG. 12): significantly improved the cognitive ability
[3]
  difference in COHgb half-life versus O2 alone: 15 min
[4]
  increase in the gas-out concentration of CO2 versus controls: five- to eight-fold increase
[4]; listed as hydroxocobalamin with ascorbic acid
  increase in the gas-out concentration of CO2 versus controls: 5 to 8 fold
[4]; listed as reduced form of hydroxocobalamin
  increase in the gas-out concentration of CO2 versus controls: 5 to 8 fold
[4]; human blood, 50% COHgb, 5 mL injection, 30 min post-infusion, from normalized AUC
  Median CO2 concentration (gas-out): 1170 ppm
[4]; pre-mixed solution injected into blood containing 45-55% COHgb
  fold increase in the gas-out concentration of CO2: 3-4 fold
[5]; CO-exposed rats, 60 min post-infusion monitoring, did not differ from NS (p=0.61)
  maximum PbtO2: 33 mmHg
[5]; CO-exposed rats, single 100 mg/kg IP dose after 30 min 2500 ppm CO
  time to achieve PbtO2 of 25 mmHg (τ25): 12 (95% CI 10, 13) min
[5]; sham-exposure (medical air) rats, PbtO2 averaged 31 mmHg
  change in PbtO2 upon administration: no change
[6]; CO-exposed rats, immediate single dose
  myelinated axons in cortical layers: partial preservation of myelinated axons
[6]; post-injury day 10, preliminary immunochemistry data
  CO-induced damage (cell count, demyelination, microglial activity): appeared to partially reverse CO-induced damage
[7]
  increase in the 13CO2/12CO2 ratio over baseline: 16.7%
rats
  deaths after receiving the solution: none of our animals died
[8]
  stability to air (re-oxidation): re-oxidation occurs quickly

## O=C1O[C@H]([C@@H](O)CO)C(O)=C1O
[4]; [9]
  fold increase in the gas-out concentration of CO2: 3 fold
  median increase of gas-out CO2 over baseline: 1100 ppm

## hydroxocobalamin
[4]; serial injections at 30-minute intervals into COHgb blood: NS, then OHCbl, then ascorbic acid
  change in the gas-out concentration of CO2: < 500 ppm
[4]; whole human blood containing 50% COHgb, over 30 min
  CO2 production (FIG. 1): Little or no CO2 was produced
